Test results as given in patent publication US11771773B2, “Pharmaceutical preparation containing polyethylene gylcol loxenatide and preparation method thereof” (Jiangsu Hansoh Pharmaceutical Group Co., Ltd., priority 2016, dated 2023).

Conditions: clinical results

Substance: polyethylene glycol loxenatide
- half-life (t½): up to 80 hours
